Assay results as given in ChEMBL document CHEMBL1153377, “8-Bromo-9-alkyl adenine derivatives as tools for developing new adenosine A2A and A2B receptors ligands” (Bioorg Med Chem, 2009).

Target: Adenosine receptor A2a (Homo sapiens, UniProt P29274)
Assay: Displacement of [3H]NECA from human adenosine A2A receptor expressed in CHO cells
Assay type: cell-based
Method in brief: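 CHO cells stably expressing human receptor; membranes from a two-step spin (1000 g, then 100,000 g), resuspended in binding buffer, stored -80 °C. Competition with [3H]NECA at 30 nM (A2A) or 10 nM (A3); nonspecific binding defined with […]. Ki derived from competition experiments.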

## Cn1cnc2c(N)ncnc21
  Ki: 6.9 µM
